Assay results as given in patent publication US6753459B2, “Transgenic plants and methods for production thereof” (National Research Council of Canada, priority 1998, dated 2004).

Test system: Transformed tobacco plants containing the pJH 121 construct
Experiment: NAM spray of transformed tobacco plants containing pJH121 (conditionally lethal phenotype)
Format: in vivo
Conditions: 200 ug/mL NAM with 0.1% Tween 20, sprayed to runoff
Experimental: Transformed tobacco plants containing the pJH 121 construct described above are recovered and tested using standard analysis to determine the presence of the inserted vector. […] A solution containing 200 ug/mL of NAM with 0.1% Tween 20 is prepared. Plants were sprayed to runoff using a pressurized sprayer. […] Non-transformed plants are unaffected by the treatment.

NC(=O)Cc1cccc2ccccc12 [NAM, napthalene acetamide]
visual phenotype of transformed plants (2 days after spraying): leaves are drooping and the leaf margins curling
visual phenotype of transformed plants (within 5 days): leaves are twisted and the plant shows typical auxin toxicity
